The chains behind the UniProt entries cited, without tags or fusion partners.
UniProt P35222, whole entry: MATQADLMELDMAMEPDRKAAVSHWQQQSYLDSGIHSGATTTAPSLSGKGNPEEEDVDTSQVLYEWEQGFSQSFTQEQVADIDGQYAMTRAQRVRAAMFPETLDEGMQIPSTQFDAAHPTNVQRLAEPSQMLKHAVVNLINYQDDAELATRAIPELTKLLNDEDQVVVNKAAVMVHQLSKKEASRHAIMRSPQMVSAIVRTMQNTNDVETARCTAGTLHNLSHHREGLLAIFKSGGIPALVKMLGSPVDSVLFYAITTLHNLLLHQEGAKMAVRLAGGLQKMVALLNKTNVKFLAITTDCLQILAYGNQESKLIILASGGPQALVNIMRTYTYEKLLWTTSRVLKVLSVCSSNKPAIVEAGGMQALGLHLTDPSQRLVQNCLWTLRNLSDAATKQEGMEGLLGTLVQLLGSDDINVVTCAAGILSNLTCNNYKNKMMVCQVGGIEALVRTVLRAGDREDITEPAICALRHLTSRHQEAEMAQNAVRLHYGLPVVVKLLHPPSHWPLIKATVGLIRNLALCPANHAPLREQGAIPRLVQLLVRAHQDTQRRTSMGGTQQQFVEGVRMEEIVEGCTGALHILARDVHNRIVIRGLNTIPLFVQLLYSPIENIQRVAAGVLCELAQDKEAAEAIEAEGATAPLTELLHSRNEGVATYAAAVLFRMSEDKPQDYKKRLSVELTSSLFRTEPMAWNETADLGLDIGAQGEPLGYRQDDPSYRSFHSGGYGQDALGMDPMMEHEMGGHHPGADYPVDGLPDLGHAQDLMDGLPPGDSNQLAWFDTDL

In patent US20240360179A1, “STAPLED PEPTIDES AND METHODS THEREOF” (FOG PHARMACEUTICALS, INC., priority 2021, published 2024):

Columns and labels:
[1] = biological target: beta-catenin/TCF4 interaction (Homo sapiens, UniProt P35222); test: cell-based; design: host or cells: HEK293; conditions: NanoBRET Abs IC50 (uM)
[2] = biological target: T1, full-length B-Catenin (Uniprot ID P35222) (Homo sapiens, UniProt P35222); test: biochemical; type: binding; conditions: beta-Catenin FP IC50 (nM), competition fluorescence polarization
T1 construct: 10 nM full-length B-Catenin (Uniprot ID P35222)

| IC50 ([1]; absolute IC50) | IC50 [2] | IC50 [1] | SMILES |
| --- | --- | --- | --- |
| 1.5 to 3 µM | < 50 nM | – | CC(=O)N1CCC[C@]12CC=CCCCC1(CCCC=CCCCOC(=O)N3CC[C@@]4(C3)NC(=O)[C@H](CCCCNC(=O)CC[C@@H](C(=O)N[C@H](C(=O)N[C@@H](C)C(N)=O)C(C)C)NC(=O)[C@H](Cc3csc5ccccc35)NC(=O)[C@H](Cc3ccsc3)NC4=O)NC(=O)[C@H](Cc3ccccc3)NC(=O)[C@H](C)NC(=O)C(C)(C)NC(=O)[C@H](Cc3cccc(C(=O)O)c3)NC(=O)[C@H](CC(=O)O)NC1=O)NC(=O)[C@H](CC(C)(C)C)NC(=O)[C@H](CC(=O)O)NC2=O (single isomer, unassigned) [I-402, Ac-PL3-Asp-Npg-B5-Asp-3COOHF-Aib-Ala-Phe-Lys*3-PyrS2-3Thi-BztA-GlnR*3-Val-Ala-NH2] |
| 1.5 to 3 µM | < 50 nM | – | CC(=O)N1CCC[C@]12CC=CCCCC1(CCCC=CCCCOC(=O)N3CC[C@@]4(C3)NC(=O)[C@H](CCCCNC(=O)CC[C@@H](C(=O)N[C@H](C(=O)N[C@@H](CCC(=O)O)C(=O)N[C@@H](C)C(N)=O)C(C)C)NC(=O)[C@H](Cc3csc5ccccc35)NC(=O)[C@H](Cc3ccsc3)NC4=O)NC(=O)[C@H](Cc3ccccc3)NC(=O)[C@H](C)NC(=O)C(C)(C)NC(=O)[C@H](Cc3cccc(C(=O)O)c3)NC(=O)[C@H](CC(=O)O)NC1=O)NC(=O)[C@H](CC(C)(C)C)NC(=O)[C@H](CC(=O)O)NC2=O (relative stereo) [I-507, Ac-PL3-Asp-Npg-B5-Asp-3COOHF-Aib-Ala-Phe-Lys*3-PyrS2-3Thi-BztA-GlnR*3-Val-Glu-Ala-NH2] |
| 1.5 to 3 µM | < 50 nM | – | CC(=O)N1CCC[C@]12CC=CCCCC1(CCCC=CCCCOC(=O)N3CC[C@@]4(C3)NC(=O)[C@H](CCCCNC(=O)CC[C@@H](C(=O)N[C@@H](CC(C)C)C(=O)N[C@H](C(=O)N[C@@H](C)C(N)=O)[C@@H](C)O)NC(=O)[C@H](Cc3csc5ccccc35)NC(=O)[C@H](Cc3ccsc3)NC4=O)NC(=O)[C@H](Cc3ccccc3)NC(=O)[C@H](C)NC(=O)C(C)(C)NC(=O)[C@H](Cc3cccc(C(=O)O)c3)NC(=O)[C@H](CC(=O)O)NC1=O)NC(=O)[C@H](CC(C)(C)C)NC(=O)[C@H](CC(=O)O)NC2=O (single isomer, unassigned) [I-498, Ac-PL3-Asp-Npg-B5-Asp-3COOHF-Aib-Ala-Phe-Lys*3-PyrS2-3Thi-BztA-GlnR*3-Leu-Thr-Ala-NH2] |
| > 10 µM | < 50 nM | – | CC(=O)N1CCC[C@]12CC=CCCCC1(CCCC=CCCCOC(=O)N3CC[C@@]4(C3)NC(=O)[C@H](CCCCNC(=O)CC[C@@H](C(=O)N[C@@H](C)C(N)=O)NC(=O)[C@H](Cc3csc5ccccc35)NC(=O)[C@H](Cc3ccsc3)NC4=O)NC(=O)[C@H](Cc3ccccc3)NC(=O)[C@H]([C@H](C)O)NC(=O)C(C)(C)NC(=O)[C@H](Cc3cccc(C(=O)O)c3)NC(=O)[C@H](CC(=O)O)NC1=O)NC(=O)[C@H](CC(C)(C)C)NC(=O)[C@H](CC(=O)O)NC2=O (relative stereo) [I-446, Ac-PL3-Asp-Npg-B5-Asp-3COOHF-Aib-aThr-Phe-Lys*3-PyrS2-3Thi-BztA-GlnR*3-Ala-NH2] |
| > 10 µM | < 50 nM | – | CC(=O)N1CCC[C@]12CC=CCCCC1(CCCC=CCCCOC(=O)N3CC[C@@]4(C3)NC(=O)[C@H](CCCCNC(=O)CC[C@@H](C(=O)N[C@@H](C)C(N)=O)NC(=O)[C@H](Cc3csc5ccccc35)NC(=O)[C@H](Cc3ccsc3)NC4=O)NC(=O)[C@H](Cc3ccccc3)NC(=O)C3(CC3)NC(=O)C(C)(C)NC(=O)[C@H](Cc3cccc(C(=O)O)c3)NC(=O)[C@H](CC(=O)O)NC1=O)NC(=O)[C@H](CC(C)(C)C)NC(=O)[C@H](CC(=O)O)NC2=O (relative stereo) [I-440, Ac-PL3-Asp-Npg-B5-Asp-3COOHF-Aib-Cpg-Phe-Lys*3-PyrS2-3Thi-BztA-GlnR*3-Ala-NH2] |
| 1.5 to 3 µM | < 50 nM | – | CC(=O)N1CCC[C@]12CC=CCCCC1(CCCC=CCCCOC(=O)N3CC[C@@]4(C3)NC(=O)[C@H](CCCCNC(=O)CC[C@@H](C(=O)N[C@@H](CC(C)C)C(=O)N[C@H](C(=O)N[C@@H](C)C(N)=O)[C@H](C)O)NC(=O)[C@H](Cc3csc5ccccc35)NC(=O)[C@H](Cc3ccsc3)NC4=O)NC(=O)[C@H](Cc3ccccc3)NC(=O)[C@H](C)NC(=O)C(C)(C)NC(=O)[C@H](Cc3cccc(C(=O)O)c3)NC(=O)[C@H](CC(=O)O)NC1=O)NC(=O)[C@H](CC(C)(C)C)NC(=O)[C@H](CC(=O)O)NC2=O (single isomer, unassigned) [I-500, Ac-PL3-Asp-Npg-B5-Asp-3COOHF-Aib-Ala-Phe-Lys*3-PyrS2-3Thi-BztA-GlnR*3-Leu-aThr-Ala-NH2] |

Continued, compound first:

| SMILES | IC50 ([1]; absolute IC50) | IC50 [2] | IC50 [1] |
| --- | --- | --- | --- |
| C[C@H](NC(=O)[C@@H]1CCC(=O)NCCCC[C@@H]2NC(=O)[C@H](Cc3ccccc3)NC(=O)[C@H](C)NC(=O)C(C)(C)NC(=O)[C@H](Cc3cccc(C(=O)O)c3)NC(=O)[C@H](CC(=O)O)NC(=O)[C@](C)(NC(=O)[C@@H]3CC=CCCC(=O)N4CCC[C@@]4(C)C(=O)N[C@@H](CC(=O)O)C(=O)N3)CCCCCCCCOC(=O)N3CC[C@@](C3)(NC2=O)C(=O)N[C@@H](Cc2ccsc2)C(=O)N[C@@H](Cc2csc3ccccc23)C(=O)N1)C(N)=O (single isomer, unassigned) [I-428, 4pentenyl-MePro-Asp-AllylGly-R5-Asp-3COOHF-Aib-Ala-Phe-Lys*3-PyrS2-3Thi-BztA-GlnR*3-Ala-NH2] | > 10 µM | < 50 nM | – |
| CC(=O)N1CCC[C@]12CC=CCCCC1(CCCC=CCCCOC(=O)N3CC[C@@]4(C3)NC(=O)[C@@H](CCC(=O)NCCCC[C@@H](C(N)=O)NC(=O)[C@H](Cc3csc5ccccc35)NC(=O)[C@H](Cc3ccsc3)NC4=O)NC(=O)[C@H](Cc3ccccc3)NC(=O)[C@H](C)NC(=O)[C@H](C)NC(=O)[C@H](CC(=O)O)NC(=O)[C@H](CC(=O)O)NC1=O)NC(=O)[C@H](CC(C)C)NC(=O)[C@H](CC(=O)O)NC2=O (relative stereo) [I-5, Ac-PL3-Asp-Leu-B5-Asp-Asp-Ala-Ala-Phe-DGlnR*3-PyrS2-3Thi-BztA-Lys*3-NH2] | – | < 50 nM | > 10 µM |
| C[C@H](NC(=O)[C@@H]1CCC(=O)NCCCC[C@@H]2NC(=O)[C@H](Cc3ccccc3)NC(=O)[C@H](C)NC(=O)C(C)(C)NC(=O)[C@H](Cc3cccc(C(=O)O)c3)NC(=O)[C@H](CC(=O)O)NC(=O)[C@](C)(NC(=O)[C@@H]3CCCCCC(=O)N4CCC[C@@]4(C)C(=O)N[C@@H](CC(=O)O)C(=O)N3)CCCCCCCCOC(=O)N3CC[C@@](C3)(NC2=O)C(=O)N[C@@H](Cc2ccsc2)C(=O)N[C@@H](Cc2csc3ccccc23)C(=O)N1)C(N)=O (relative stereo) [I-425, 4penteny1-MePro-Asp-AllylGly-R5-Asp-3COOHF-Aib-Ala-Phe-Lys*3-PyrS2-3Thi-BztA-GlnR*3-Ala-NH2] | > 10 µM | 50 to 200 nM | – |
| CC(=O)N1CCC[C@]12CC=CCCCC1(CCCC=CCCCOC(=O)N3CC[C@@]4(C3)NC(=O)[C@H](CCCCNC(=O)CC[C@@H](C(=O)N[C@@H](C)C(N)=O)NC(=O)[C@H](Cc3csc5ccccc35)NC(=O)[C@H](CC3CC3)NC4=O)NC(=O)[C@H](Cc3ccccc3)NC(=O)[C@H](C)NC(=O)C(C)(C)NC(=O)[C@H](Cc3cccc(C(=O)O)c3)NC(=O)[C@H](CC(=O)O)NC1=O)NC(=O)[C@H](CC(C)(C)C)NC(=O)[C@H](CC(=O)O)NC2=O (single isomer, unassigned) [I-281, Ac-PL3-Asp-Npg-B5-Asp-3COOHF-Aib-Ala-Phe-Lys*3-PyrS2-Cpa-BztA-GlnR*3-Ala-NH2] | – | < 50 nM | 3 to 10 µM |
| CC(=O)N1CCC[C@]12CC=CCCCC1(CCCC=CCCCOC(=O)N3CC[C@@](C(=O)N[C@@H](Cc4ccsc4)C(=O)N[C@@H](Cc4csc5ccccc45)C(=O)N[C@@H](CCC(N)=O)C(N)=O)(C3)NC(=O)[C@@H]3CCCCNC(=O)CC[C@H](NC(=O)[C@H](CC(=O)O)NC(=O)[C@H](CC(=O)O)NC1=O)C(=O)N[C@@H](C)C(=O)N[C@@H](Cc1ccccc1)C(=O)N3)NC(=O)[C@H](CC(C)C)NC(=O)[C@H](CC(=O)O)NC2=O (relative stereo) [I-8, Ac-PL3-Asp-Leu-B5-Asp-Asp-GlnR*3-Ala-Phe-Lys*3-PyrS2-3Thi-BztA-Gln-NH2] | – | < 50 nM | > 10 µM |
| CC(=O)N1CCC[C@]12CC=CCCCC1(CCCC=CCCCOC(=O)N3CC[C@@]4(C3)NC(=O)[C@H](CCCn3cc(nn3)C[C@@H](C(=O)N[C@@H](C)C(N)=O)NC(=O)[C@H](Cc3csc5ccccc35)NC(=O)[C@H](Cc3ccsc3)NC4=O)NC(=O)[C@H](Cc3ccccc3)NC(=O)[C@H](C)NC(=O)C(C)(C)NC(=O)[C@H](Cc3cccc(C(=O)O)c3)NC(=O)[C@H](CC(=O)O)NC1=O)NC(=O)[C@H](CC(C)(C)C)NC(=O)[C@H](CC(=O)O)NC2=O (stereo partly drawn) [I-421, Ac-PL3-Asp-Npg-B5-Asp-3COOHF-Aib-Ala-Phe-TriAzOrn*3-PyrS2-3Thi-BztA-sAla*3-Ala-NH2] | > 10 µM | < 50 nM | – |
| CC(=O)N1CCC[C@]12CC=CCCCC1(CCCC=CCCCOC(=O)N3CC[C@@]4(C3)NC(=O)[C@H](CCCCNC(=O)CC[C@@H](C(=O)N[C@@H](C)C(N)=O)NC(=O)[C@H](Cc3csc5ccccc35)NC(=O)[C@H](Cc3ccccc3C(F)(F)F)NC4=O)NC(=O)[C@H](Cc3ccccc3)NC(=O)[C@H](C)NC(=O)C(C)(C)NC(=O)[C@H](Cc3cccc(C(=O)O)c3)NC(=O)[C@H]([C@@H](C)C(=O)O)NC1=O)NC(=O)[C@H](CC(C)(C)C)NC(=O)[C@H](CC(=O)O)NC2=O (relative stereo) [I-287, Ac-PL3-Asp-Npg-B5-RbMeAsp-3COOHF-Aib-Ala-Phe-Lys*3-PyrS2-2F3MeF-BztA-GlnR*3-Ala-NH2] | – | 50 to 200 nM | > 10 µM |
| CC(=O)N1CCC[C@]12CC=CCCCC1(CCCC=CCCCOC(=O)N3CC[C@@]4(C3)NC(=O)[C@H](CCCCNC(=O)CC[C@@H](C(=O)N[C@@H](C)C(N)=O)NC(=O)[C@H](Cc3csc5ccccc35)NC(=O)[C@H](Cc3ccccc3C(F)(F)F)NC4=O)NC(=O)[C@H](Cc3ccccc3)NC(=O)[C@H](C)NC(=O)[C@H]([C@@H](C)O)NC(=O)[C@H](Cc3cccc(C(=O)O)c3)NC(=O)[C@H](CC(=O)O)NC1=O)NC(=O)[C@H](CC(C)(C)C)NC(=O)[C@H](CC(=O)O)NC2=O (relative stereo) [I-73, Ac-PL3-Asp-Npg-B5-Asp-3COOHF-Thr-Ala-Phe-Lys*3-PyrS2-2F3MeF-BztA-GlnR*3-Ala-NH2] | – | < 50 nM | 1.5 to 3 µM |
